ChEMBL document CHEMBL4325929, “Discovery of Tetrahydropyridopyrimidines as Irreversible Covalent Inhibitors of KRAS-G12C with In Vivo Activity” (ACS Med Chem Lett, 2018)

Amino acid sequences for entries named in this document (tags omitted).
UniProt P01116, whole entry: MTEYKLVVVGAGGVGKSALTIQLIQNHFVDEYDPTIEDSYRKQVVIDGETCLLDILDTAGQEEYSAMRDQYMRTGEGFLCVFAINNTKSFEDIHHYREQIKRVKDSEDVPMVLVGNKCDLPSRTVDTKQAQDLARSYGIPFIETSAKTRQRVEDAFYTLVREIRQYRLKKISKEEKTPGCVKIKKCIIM
UniProt P01116, whole entry G12D: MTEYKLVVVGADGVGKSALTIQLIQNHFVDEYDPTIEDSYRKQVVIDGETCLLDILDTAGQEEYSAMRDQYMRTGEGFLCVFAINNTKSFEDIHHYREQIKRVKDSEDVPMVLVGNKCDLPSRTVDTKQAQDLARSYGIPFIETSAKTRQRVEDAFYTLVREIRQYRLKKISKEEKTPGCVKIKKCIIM

Assays:
Assay type in all cases: cell-based
GTPase KRas [1] = biological target: T1, GTPase KRas (Homo sapiens, UniProt P01116); experiment: Inhibition of wild type KRAS in human SNUC5 cells assessed as reduction in ERK phosphorylation measured after 3 hrs by Western blot analysis
GTPase KRas [2] = biological target: T2, GTPase KRas (Homo sapiens, UniProt P01116, G12C); experiment: Inhibition of KRAS G12C mutant in human MIAPaCa2 cells assessed as reduction in ERK phosphorylation measured after 3 hrs by Western blot analysis
GTPase KRas [3] = biological target: T2, GTPase KRas; experiment: Inhibition of KRAS G12C mutant in human NCI-H358 cells assessed as reduction in ERK phosphorylation measured after 3 hrs by Western blot analysis
GTPase KRas [4] = biological target: T1, GTPase KRas; experiment: Inhibition of wild type KRAS in human RKO cells assessed as reduction in ERK phosphorylation measured after 3 hrs by Western blot analysis
GTPase KRas [5] = biological target: GTPase KRas (Homo sapiens, UniProt P01116, G12D); experiment: Inhibition of KRAS G12D mutant in human AGS cells assessed as reduction in ERK phosphorylation measured after 3 hrs by Western blot analysis

C=CC(=O)N1CCN(c2nc(OC[C@@H]3CCCN3C)nc3c2CCN(c2cc(O)cc4ccccc24)C3)CC1
IC50 (GTPase KRas [1]): > 16 µM | IC50 (GTPase KRas [2]): 0.048 µM | IC50 (GTPase KRas [3]): 0.07 µM | IC50 (GTPase KRas [4]): > 16 µM | IC50 (GTPase KRas [5]): > 16 µM
